Assay results reported in PubChem BioAssay AID570 (The Scripps Research Institute Molecular Screening Center, 2006).
This is a selection; strong and weak results do not stand in their true shares. Calls of active or inactive are those of the source.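 The calls were made as follows: active = inhibition above the mean of compound-free control plate wells plus 3 SD (cut at about 14% in these data); inactive = the rest.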

Molecular target: Collagenase 3 (Homo sapiens) (UniProt P45452)
Experiment: human MMP13 inhibitors, primary screen, biochemical, FRET peptide cleavage (AID 570);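 also: 0% = DMSO wells and 100% = wells with reference MMP-13 inhibitor after basal subtraction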
Settings: MMP-13 fTHP FRET cleavage, Mca fluorescence; at 4 µM; active compounds read high

Structure (SMILES) | inhibition
COc1ccc(NC2CCN(CCc3ccccc3)CC2)c(OC)c1 | inactive: -5.2%
O=C(OC1CN2CCC1CC2)C1c2ccccc2Oc2ccccc21 (configuration not stated) | inactive: -1.5%
N#CC1(Nc2ccccc2)CCN(CCc2ccccc2)CC1 | inactive: 0.1%
N/C(=N\O)c1c(N)no[n+]1[O-] | inactive: 4.7%
CCC(CO)(C(=O)OC1CN2CCC1CC2)c1ccccc1 (configuration not stated) | inactive: 0.2%
CCOc1ncccc1C(=O)NCC1(N2CCOCC2)CCCCC1 | inactive: -8.9%
Fc1ccccc1NC1CCN(Cc2ccccc2)CC1 | inactive: -8.2%
